# Values of other authors, collected in patent US20160165928A1, “METHODS OF REDUCING METHANE EMISSION DERIVED FROM RUMINAL FERMENTATION WHILE SIMULTANEOUSLY REDUCING RISK OF NITRATE INTOXICATION” (Grasp Indústria e Comércio Ltda., priority 2011, published 2016).
# Tested on: ruminal accumulation of nitrite
# Conditions: in vivo
smiles,measurement,value
O=S(=O)([O-])[O-].[Na+].[Na+] [sodium sulfate],intoxication risks,minimization of intoxication risks
